Data published in PMC3385512 (Science Translational Medicine, 2012).
Where two headings read alike, the source gives them in different places.

Tested on: KIT-overexpressing H3122 cells
Conditions: crizotinib 1 μM, 7 days

With C[C@@H](Oc1cc(-c2cnn(C3CCNCC3)c2)cnc1N)c1c(Cl)ccc(F)c1Cl [crizotinib] the “sensitivity, cell viability” value (absence of exogenously added SCF) was “highly sensitive” and the “sensitivity, cell viability” value (presence of SCF (100 ng/ml)) was “highly resistant”.
